Chains of the proteins cited; added tags and fusions are not shown. Residues count along the entry.
UniProt Q9F663, 25-293 limits assumed: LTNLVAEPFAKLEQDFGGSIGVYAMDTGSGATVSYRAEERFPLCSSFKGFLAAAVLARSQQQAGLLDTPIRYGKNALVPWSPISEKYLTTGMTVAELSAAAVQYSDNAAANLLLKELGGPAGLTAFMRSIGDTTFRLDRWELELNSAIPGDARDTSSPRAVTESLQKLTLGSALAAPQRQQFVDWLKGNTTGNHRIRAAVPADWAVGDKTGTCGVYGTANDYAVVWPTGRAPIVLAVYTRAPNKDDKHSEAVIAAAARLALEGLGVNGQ
UniProt Q9F663, 25-293 H272Y: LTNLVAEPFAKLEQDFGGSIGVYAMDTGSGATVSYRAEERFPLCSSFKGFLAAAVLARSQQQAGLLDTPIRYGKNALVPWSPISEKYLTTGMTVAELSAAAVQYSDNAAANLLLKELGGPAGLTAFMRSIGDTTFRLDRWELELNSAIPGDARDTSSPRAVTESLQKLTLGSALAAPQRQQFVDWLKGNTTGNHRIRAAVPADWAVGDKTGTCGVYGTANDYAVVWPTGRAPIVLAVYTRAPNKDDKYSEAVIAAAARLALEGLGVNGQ

In PMC11620503 (Antimicrobial Agents and Chemotherapy, 2024):

Experiments:
Assay in all cases: Ki app determination (Waley's method)
[1] = target: KPC-38 (Klebsiella pneumoniae, UniProt Q9F663); details: read-out: Ki app, means from three independent studies
[2] = target: KPC-2 (Klebsiella pneumoniae, UniProt Q9F663)
[3] = target: KPC-3 (Klebsiella pneumoniae, UniProt Q9F663, H272Y)

In the case of O=C(NC1CCNCC1)[C@@H]1CC[C@@H]2CN1C(=O)N2OS(=O)(=O)O [Relebactam, relebactam], the Ki [1] is reported as 2.94 ± 0.982 nM, the Ki [2] is reported as 5.03 ± 0.734 nM and the Ki [3] is reported as 7.67 ± 1.64 nM.
